# About 410 targets per protein were measured; listed, in parts, are those with the strongest signals and a random draw of the rest.
# Key:
# Test in all cases: glycan array binding signal (z-score within array); higher = stronger binding
# Settings in all cases: glycan notation: IUPAC condensed, linker removed
# [1] = target: Fuc(a1-2)[GalNAc(a1-3)]Gal(b1-4)Glc
# [2] = target: Fuc(a1-2)[GalNAc(a1-3)]Gal(b1-4)GlcNAc
# [3] = target: Fuc(a1-3)[Gal(b1-4)]GlcNAc6S
# [4] = target: Gal(a1-3)Gal(b1-3)Glc
# [5] = target: Gal(a1-6)Glc
# [6] = target: Gal(b1-3)Gal
# [7] = target: Gal(b1-3)GalNAc(b1-3)Gal(b1-4)GlcNAc
# [8] = target: Gal(b1-3)GlcNAc(b1-3)Gal(b1-3)GlcNAc
# [9] = target: Gal(b1-3)[GlcNAc(b1-6)]GlcNAc
# [10] = target: Gal(b1-4)Glc6S
# [11] = target: Gal(b1-4)GlcNAc(b1-3)[Gal(b1-4)GlcNAc(b1-6)]GalNAc
# [12] = target: Gal3S(b1-4)Glc6S
# [13] = target: Gal3S(b1-4)GlcNAc6S
# [14] = target: Gal3S6S(b1-4)GlcNAc6S
# [15] = target: Gal4S6S(b1-4)GlcNAc
# [16] = target: GlcNAc(b1-3)GalNAc
# [17] = target: GlcNAc(b1-3)[GlcNAc(b1-4)][GlcNAc(b1-6)]GlcNAc
# [18] = target: Man(a1-2)Man(a1-3)Man
# [19] = target: Neu5Ac(a2-3)Gal(b1-3)GalNAc
# [20] = target: Neu5Ac(a2-3)GalNAc
binder,measurement,setting,value
"TLR-2 (Homo sapiens), O60603 (protein) ESSNQASLSCDRNGICKGSSGSLNSIPSGLTEAVKSLDLSNNRITYISNSDLQRCVNLQALVLTSNGINTIEEDSFSSLGSLEHLDLSYNYLSNLSSSWFKPLSSLTFLNLLGNPYKTLGETSLFSHLTKLQILRVGNMDTFTKIQRKDFAGLTFLEELEIDASDLQSYEPKSLKSIQNVSHLILHMKQHILLLEIFVDVTSSVECLELRDTDLDTFHFSELSTGETNSLIKKFTFRNVKITDESLFQVMKLLNQISGLLELEFDDCTLNGVGNFRASDNDRVIDPGKVETLTIRRLHIPRFYLFYDLSTLYSLTERVKRITVENSKVFLVPCLLSQHLKSLEYLDLSENLMVEEYLKNSACEDAWPSLQTLILRQNHLASLEKTGETLLTLKNLTNIDISKNSFHSMPETCQWPEKMKYLNLSSTRIHSVTGCIPKTLEILDVSNNNLNLFSLNLPQLKELYISRNKLMTLPDASLLPMLLVLKISRNAITTFSKEQLDSFHTLKTLEAGGNNFICSCEFLSFTQEQQALAKVLIDWPANYLCDSPSHVRGQQVQDVRLSVSECHRT",glycan array binding signal (z-score),[1],-0.171
same,glycan array binding signal (z-score),[2],-0.641
same,glycan array binding signal (z-score),[3],1.73
same,glycan array binding signal (z-score),[4],0.332
same,glycan array binding signal (z-score),[5],0.107
same,glycan array binding signal (z-score),[6],-0.373
same,glycan array binding signal (z-score),[7],0.222
same,glycan array binding signal (z-score),[8],2.09
same,glycan array binding signal (z-score),[9],-0.901
same,glycan array binding signal (z-score),[10],0.191
same,glycan array binding signal (z-score),[11],-0.313
same,glycan array binding signal (z-score),[12],0.975
same,glycan array binding signal (z-score),[13],1.8
same,glycan array binding signal (z-score),[14],2.11
same,glycan array binding signal (z-score),[15],1.75
same,glycan array binding signal (z-score),[16],0.492
same,glycan array binding signal (z-score),[17],-0.43
same,glycan array binding signal (z-score),[18],-0.592
same,glycan array binding signal (z-score),[19],-0.699
same,glycan array binding signal (z-score),[20],-0.527

# Reference: the supplement of paper PMC8728848
